Laboratory results: publication PMC4805781 (International Journal for Parasitology: Drugs and Drug …, 2016)

Assay: Double-sink parallel artificial membrane permeability assay
Assay type: in vitro ADME

Permeability pH 5.0 (−logPe) (pH 5.0): 5.2 −logPe
Permeability pH 6.2 (−logPe) (pH 6.2): 5.1 −logPe
Permeability pH 7.4 (−logPe) (pH 7.4): > 5.9 −logPe
Compound: CNC(=C[N+](=O)[O-])NCCSCc1ccc(CN(C)C)o1 [rantidine]
